Laboratory results as given in patent US20130315918A1 (published 2013).
Where “and” joins values, the source holds several entries; their conditions need not be identical. Equal values may be shown once. Read-outs that look alike come from different tables or passages of the source.

T1: murine VEGF (mVEGF) (mouse, UniProt Q00731 27-190)
T1 chain: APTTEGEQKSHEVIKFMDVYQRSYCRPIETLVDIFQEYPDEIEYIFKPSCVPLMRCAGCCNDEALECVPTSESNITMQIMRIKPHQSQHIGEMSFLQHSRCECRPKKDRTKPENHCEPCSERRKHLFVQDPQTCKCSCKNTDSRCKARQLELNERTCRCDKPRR


Key:
human VEGF (hVEGF) [1] = biological target: T2, human VEGF (hVEGF) (human, UniProt P15692 27-191); assay: competition
human VEGF (hVEGF) [2] = biological target: T2, human VEGF (hVEGF)
murine VEGF (mVEGF) [3] = biological target: T1, murine VEGF (mVEGF)
human VEGF (hVEGF) [4] = biological target: T2, human VEGF (hVEGF); assay: competition; remark: listed apart in the source
murine VEGF (mVEGF) [5] = biological target: T1, murine VEGF (mVEGF); assay: competition
human VEGF (hVEGF) [6] = biological target: T2, human VEGF (hVEGF); assay: competition; remark: listed apart in the source
murine VEGF (mVEGF) [7] = biological target: T1, murine VEGF (mVEGF); assay: competition
murine VEGF (mVEGF) [8] = biological target: T1, murine VEGF (mVEGF); assay: competition
human VEGF (hVEGF) [9] = biological target: T2, human VEGF (hVEGF); assay: SPR
murine VEGF (mVEGF) [10] = biological target: T1, murine VEGF (mVEGF); assay: SPR
human VEGF (hVEGF) [11] = biological target: T2, human VEGF (hVEGF); assay: SPR; remark: listed apart in the source
murine VEGF (mVEGF) [12] = biological target: T1, murine VEGF (mVEGF); assay: SPR
human VEGF (hVEGF) [13] = biological target: T2, human VEGF (hVEGF); assay: competition; remark: listed apart in the source

Binder | IC50 (human VEGF (hVEGF) [1]) [nM] | Kd (human VEGF (hVEGF) [2]) [nM] | Kd (murine VEGF (mVEGF) [3]) [nM] | IC50 (human VEGF (hVEGF) [4]) | IC50 (murine VEGF (mVEGF) [5]) [nM] | IC50 (human VEGF (hVEGF) [6]) [nM] | IC50 (murine VEGF (mVEGF) [7]) [nM] | IC50 (murine VEGF (mVEGF) [8]) [nM] | Kd (human VEGF (hVEGF) [9]) [nM] | Kd (murine VEGF (mVEGF) [10]) [nM] | Kd (human VEGF (hVEGF) [11]) | Kd (murine VEGF (mVEGF) [12]) | IC50 (human VEGF (hVEGF) [13]) [nM]
G6 Fab (Fab, V domains shown) VH: EVQLVESGGGLVQPGGSLRLSCAASGFTISDYWIHWVRQAPGKGLEWVAGITPAGGYTYYADSVKGRFTISADTSKNTAYLQMNSLRAEDTAVYYCARFVFFLPYAMDYWGQGTLVTVSS VL: DIQMTQSPSSLSASVGDRVTITCRASQDVSTAVAWYQQKPGKAPKLLIYSASFLYSGVPSRFSGSGSGTDFTLTISSLQPEDFATYYCQQSYTTPPTFGQGTKVEIKR | 2 | 1.3 | 1.1 | 2.1 nM and 3.5 nM | 0.6 | 1.4 | 0.6 | 0.6 | 1.6 | 0.7 | – | – | –
G6-8 Fab (Fab, V domains shown) VH: EVQLVESGGGLVQPGGSLRLSCAASGFTISDYWIHWVRQAPGKGLEWVAGITPAGGYTYYADSVKGRFTISADTSKNTAYLQMNSLRAEDTAVYYCARFVFFLPYAMDYWGQGTLVTVSS VL: DIQMTQSPSSLSASVGDRVTITCRASQDVSTAVAWYQQKPGKAPKLLIYSASFLYSGVPSRFSGSGSGTDFTLTISSLQPEDFATYYCQQGAGSPLTFGQGTKVEIKR | – | 0.45 | 0.12 | 0.13 nM and 0.07 nM | 0.06 | – | – | 0.06 | – | – | – | – | 0.11

Stronger by Kd (human VEGF (hVEGF) [2]), values ahead:

IC50 (human VEGF (hVEGF) [1]) [nM] | Kd (human VEGF (hVEGF) [2]) [nM] | Kd (murine VEGF (mVEGF) [3]) [nM] | IC50 (human VEGF (hVEGF) [4]) | IC50 (murine VEGF (mVEGF) [5]) [nM] | IC50 (human VEGF (hVEGF) [6]) [nM] | IC50 (murine VEGF (mVEGF) [7]) [nM] | IC50 (murine VEGF (mVEGF) [8]) [nM] | Kd (human VEGF (hVEGF) [9]) [nM] | Kd (murine VEGF (mVEGF) [10]) [nM] | Kd (human VEGF (hVEGF) [11]) | Kd (murine VEGF (mVEGF) [12]) | IC50 (human VEGF (hVEGF) [13]) [nM] | Binder
– | < 0.09 | < 0.06 | 0.04 nM and 0.02 nM | – | – | – | – | – | – | ~0.2 nM and ~0.4 nM | ~0.06 nM and ~0.08 nM | 0.04 | G6-31 Fab (Fab, V domains shown) VH: EVQLVESGGGLVQPGGSLRLSCAASGFTISDYWIHWVRQAPGKGLEWVAGITPAGGYTYYADSVKGRFTISADTSKNTAYLQMNSLRAEDTAVYYCARFVFFLPYAMDYWGQGTLVTVSS VL: DIQMTQSPSSLSASVGDRVTITCRASQDVSTAVAWYQQKPGKAPKLLIYSASFLYSGVPSRFSGSGSGTDFTLTISSLQPEDFATYYCQQGYGNPFTFGQGTKVEIKR
– | < 0.2 | < 0.09 | 0.04 nM | – | – | – | – | < 0.2 | < 0.1 | ~0.2 nM and ~0.6 nM | ~0.2 nM and ~0.1 nM | – | G6-23 Fab (Fab, V domains shown) VH: EVQLVESGGGLVQPGGSLRLSCAASGFTISDYWIHWVRQAPGKGLEWVAGITPAGGYTYYADSVKGRFTISADTSKNTAYLQMNSLRAEDTAVYYCARFVFFLPYAMDYWGQGTLVTVSS VL: DIQMTQSPSSLSASVGDRVTITCRASQDVSTAVAWYQQKPGKAPKLLIYSASFLYSGVPSRFSGSGSGTDFTLTISSLQPEDFATYYCKQGYANPWTFGQGTKVEIKR
